According to patent US20250177423A1, “PHOTORESPONSIVE PEPTIDE DELIVERY SYSTEM AND METHOD OF USING THE SAME” (THE UNIVERSITY OF HONG KONG, priority 2023, published 2025):
Residues, ends and D or L forms follow the SMILES beside them. *: point of attachment. X1 = COc1ccc(/C=C/C2=[N+]3C(=C(COC(=O)*)c4c(C)cc(/C=C/c5ccc(OC)cc5)n4[B-]3(C)C)C(C)=C2)cc1

What was measured:
CT26 cells = assay: Cytotoxicity in CT26 cells; details: after light irradiation (LED, 656 nm, 100 mW/cm^2)
[1] = Encapsulation efficiency and loading content in cAS16/PLA5k-PEG2k/elesclomol-Cu NPs; type: physicochemical

| encapsulation efficiency [1] [%] | loading content [1] [%] | SMILES | cytotoxicity to CT26 cells (CT26 cells) |
| --- | --- | --- | --- |
|  |  | COc1ccc(/C=C/C2=[N+]3C(=C(COC(=O)N[C@@H](C)C(=O)N[C@H](C(=O)N[C@@H](Cc4c[nH]c5ccccc45)C(=O)N[C@@H](CC(C)C)C(=O)N4CCC[C@H]4C(=O)N4CCC[C@H]4C(=O)N[C@@H](CCCNC(=N)N)C(=O)N[C@@H](C)C(=O)N[C@@H](C)C(=O)N[C@@H](CC(N)=O)C(=O)N[C@@H](CC(C)C)C(=O)N[C@@H](CC(C)C)C(=O)N[C@@H](CCSC)C(=O)N[C@@H](C)C(=O)N[C@@H](C)C(=O)N[C@@H](CO)C(=O)O)[C@@H](C)O)c4c(C)cc(/C=C/c5ccc(OC)cc5)n4[B-]3(C)C)C(C)=C2)cc1 [LAMP] (X1-ATWLPPRAANLLMAAS-OH) | no cytotoxicity |
| 13.25 | 8.82 | CN([N-]C(=O)CC(=O)[N-]N(C)C(=[SH+])c1ccccc1)C(=[SH+])c1ccccc1.[Cu] [elesclomol-Cu] |  |
